Results taken from BindingDB's records for doi:10.1021/jm060807n (Universite Montpellier Ii, 2006).

By UniProt entry, the sequences of proteins in these tests, tags left out. Where a name states a change or a piece, a line headed by the entry shows the natural chain unless it says otherwise.
UniProt Q9D6N1: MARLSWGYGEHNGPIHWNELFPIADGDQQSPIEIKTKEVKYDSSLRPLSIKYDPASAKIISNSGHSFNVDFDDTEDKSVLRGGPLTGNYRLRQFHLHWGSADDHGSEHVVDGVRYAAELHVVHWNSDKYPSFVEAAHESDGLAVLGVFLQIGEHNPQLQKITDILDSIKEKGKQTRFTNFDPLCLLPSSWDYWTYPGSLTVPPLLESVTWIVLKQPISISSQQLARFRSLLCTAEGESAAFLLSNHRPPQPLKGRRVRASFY

Target: Carbonic anhydrase 13 (Mus musculus, UniProt Q9D6N1)

With CC(=O)/N=c1\sc(S(N)(=O)=O)nn1C the Ki was 19 nM.
